Experimental data: patent US10316017B2, “COT modulators and methods of use thereof” (Gilead Sciences, Inc., priority 2015, dated 2019)
Read-outs that look alike come from different tables or passages of the source.

Protein sequences, listed by entry. Tags and fused reporters are not part of them. Residues count along the entry.
UniProt P41279, 30-397 limits assumed: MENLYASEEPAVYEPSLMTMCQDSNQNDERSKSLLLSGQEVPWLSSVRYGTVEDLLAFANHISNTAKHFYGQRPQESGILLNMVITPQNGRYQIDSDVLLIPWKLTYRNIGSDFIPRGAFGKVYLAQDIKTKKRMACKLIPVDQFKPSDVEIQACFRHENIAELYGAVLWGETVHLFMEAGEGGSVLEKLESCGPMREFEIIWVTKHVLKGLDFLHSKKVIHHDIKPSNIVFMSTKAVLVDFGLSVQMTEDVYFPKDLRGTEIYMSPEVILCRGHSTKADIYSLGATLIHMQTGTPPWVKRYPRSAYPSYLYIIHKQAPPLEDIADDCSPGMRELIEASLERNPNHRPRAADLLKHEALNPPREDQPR

Assays:
[1] = system: TNFα production in LPS-stimulated human monocytes; test: Cot Monocyte TNFα Cell Based Assay; settings: read-out: EC50 TNF
[2] = molecular target: human Cot catalytic domain (30-397 amino acids) (Homo sapiens, UniProt P41279); test: High Throughput Cot Biochemical Assay (KinEASE TR-FRET); settings: read-out: IC50 HTRF, 400 μM ATP
[3] = TNFα in LPS-stimulated human monocytes
[4] = Cot KinEASE TR-FRET (HTRF) biochemical assay
[5] = LPS-stimulated human monocytes, TNFα TR-FRET

SMILES	EC50 [1, 3] [nM]	IC50 [2, 4] [nM]	IC50 ([2]; Cot KinEASE TR-FRET) [nM]	EC50 [1, 5] [nM]
[2H][C@](Nc1cc(Cl)c2ncc(C#N)c(N[C@H](CC)c3ccccc3)c2c1)(c1ccccc1)c1cn(C2CC2)nn1	158	–	–	–
[2H][C@@](Nc1cc(C#N)c2ncc(C#N)c(N[C@H](CC)c3ccccc3)c2c1)(c1cn(C2(C(F)(F)F)CC2)nn1)c1ccccc1Cl	435	26	–	–
[2H][C@](Nc1cc(Cl)c2ncc(C#N)c(Nc3cnc(F)c(F)c3)c2c1)(c1ccc(F)cc1)c1cn(CC(F)F)nn1	653	–	–	–
[2H][C@](Nc1cc(Cl)c2ncc(C#N)c(NCC(C)(C)C)c2c1)(c1cn(C2COC2)nn1)c1ccccc1Cl	279	11	–	–
[2H][C@](Nc1cc(Cl)c2ncc(C#N)c(NCC(C)(C)C)c2c1)(c1cn(C2(C#N)CC2)nn1)c1ccccc1Cl	127	16	–	–
N#Cc1cnc2c(Cl)cc(NC(c3ccc(F)cc3)c3cn([C@@H]4CCN(C(=O)OCc5ccccc5)C4)nn3)cc2c1Nc1ccc(F)c(Cl)c1 (some centres unmarked)	–	–	364	–
[2H][C@](Nc1cc(Cl)c2ncc(C#N)c(NCC(C)(C)C)c2c1)(c1cn([C@@H](C)CF)nn1)c1ccccc1Cl	345	19	–	–
[2H][C@@](Nc1cc(Cl)c2ncc(C#N)c(NCC(C)(C)C)c2c1)(c1cccc(C#N)c1)c1cn(C2(C#N)CC2)nn1	54	–	–	–
[2H][C@](Nc1cc(Cl)c2ncc(C#N)c(NCC3(C)CCC3)c2c1)(c1cn(C2CC2)nn1)c1ccccc1Cl	469	28	–	–
[2H][C@](Nc1cc(Cl)c2ncc(C#N)c(N[C@H]3CCOCC3(C)C)c2c1)(c1ccc(F)cc1)c1cn(C2CC2)nn1	43	–	–	–
[2H][C@](Nc1cc(Cl)c2ncc(C#N)c(NCC(C)(C)F)c2c1)(c1ccc(F)cc1)c1cn(C2CC2)nn1	536	52	–	–
[2H][C@@](Nc1cc(Cl)c2ncc(C#N)c(NCC34CC(C3)C4)c2c1)(c1cccc(C#N)c1)c1cn(C2CC2)nn1	–	–	7	346
[2H][C@](Nc1cc(Cl)c2ncc(C#N)c(NCC(C)(C)C)c2c1)(c1cn(CC(O)C(F)(F)F)nn1)c1ccccc1Cl (some centres unmarked)	495	50	–	–
[2H][C@](Nc1cc(Cl)c2ncc(C#N)c(NC3(C)CC3)c2c1)(c1cn(C2CC2)nn1)c1ccccc1Cl	4390	431	–	–
[2H][C@](Nc1cc(Cl)c2ncc(C#N)c(NC3(C(C)(C)C)CC3)c2c1)(c1ccc(F)cc1)c1cn(C2CC2)nn1	1610	373	–	–
[2H][C@](Nc1cc(Cl)c2ncc(C#N)c(NCC(C)(C)C)c2c1)(c1cn(C2(c3ccccn3)CC2)nn1)c1ccccc1Cl	–	–	–	84
[2H][C@@](Nc1cc(Cl)c2ncc(C#N)c(NC(CCC#N)c3ccccc3)c2c1)(c1cn(C2CC2)nn1)c1ccccc1Cl (some centres unmarked)	86	–	–	–
[2H][C@](Nc1cc(Cl)c2ncc(C#N)c(NCC(C)(C)C)c2c1)(c1cn([C@@H]2C[C@@H]2C(F)(F)F)nn1)c1ccccc1Cl	> 1000	128	–	–
[2H][C@](Nc1cc(Cl)c2ncc(C#N)c(NCCC#N)c2c1)(c1ccc(F)cc1)c1cn(C2CC2)nn1	4160	476	–	–
[2H][C@](Nc1cc(Cl)c2ncc(C#N)c(NCCc3ncc[nH]3)c2c1)(c1ccc(F)cc1)c1cn(C2CC2)nn1	> 10000	3240	–	–
[2H][C@](Nc1cc(Cl)c2ncc(C#N)c(N[C@@H](c3ccccc3)[C@H]3C[C@@H]3C#N)c2c1)(c1ccc(F)cc1)c1cn(C2CC2)nn1	125	–	–	–
[2H][C@](Nc1cc(Cl)c2ncc(C#N)c(N[C@H](CS(C)(=O)=O)c3ccccc3)c2c1)(c1ccc(F)cc1)c1cn(C2CC2)nn1	360	20	–	–
[2H][C@](Nc1cc(Cl)c2ncc(C#N)c(N[C@H](CCC#N)c3ccccc3)c2c1)(c1cccc(C#N)c1)c1cn(C2CC2)nn1	13	–	–	–
[2H][C@@](Nc1cc(F)c2ncc(C#N)c(NCC(C)(C)C)c2c1)(c1ccc(F)cc1)c1cn(C2CC2)nn1	117	–	–	–
